In US12018001B2, “Pyrimidine cyclohexenyl glucocorticoid receptor modulators” (priority 2018, dated 2024) one finds IC50 data, which are given here for one compound.

Chains of the proteins cited; added tags and fusions are not shown.
UniProt P04150, whole entry: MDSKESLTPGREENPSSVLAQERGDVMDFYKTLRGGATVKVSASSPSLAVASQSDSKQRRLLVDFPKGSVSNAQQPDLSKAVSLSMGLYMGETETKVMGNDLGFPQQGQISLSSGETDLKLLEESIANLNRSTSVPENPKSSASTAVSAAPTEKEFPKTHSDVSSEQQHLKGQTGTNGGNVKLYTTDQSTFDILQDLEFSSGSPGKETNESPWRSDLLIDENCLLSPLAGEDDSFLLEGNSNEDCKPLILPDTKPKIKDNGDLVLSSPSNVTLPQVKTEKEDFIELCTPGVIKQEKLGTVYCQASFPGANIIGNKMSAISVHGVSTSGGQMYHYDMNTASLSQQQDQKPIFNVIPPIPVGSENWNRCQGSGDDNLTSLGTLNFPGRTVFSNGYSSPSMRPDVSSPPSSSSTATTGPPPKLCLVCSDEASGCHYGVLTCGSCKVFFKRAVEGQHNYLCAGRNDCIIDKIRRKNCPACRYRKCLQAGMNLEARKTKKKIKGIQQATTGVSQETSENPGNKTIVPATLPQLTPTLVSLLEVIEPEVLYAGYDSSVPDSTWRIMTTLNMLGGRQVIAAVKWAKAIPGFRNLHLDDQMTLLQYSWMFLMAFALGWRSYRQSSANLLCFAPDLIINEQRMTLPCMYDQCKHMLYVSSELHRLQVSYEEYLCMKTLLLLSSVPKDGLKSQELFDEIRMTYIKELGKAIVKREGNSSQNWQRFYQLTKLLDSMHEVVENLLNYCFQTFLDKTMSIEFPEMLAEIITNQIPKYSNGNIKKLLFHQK

The target in this experiment is GR (Homo sapiens, UniProt P04150). Briefly: GR binding. The following applies: read-out: Mean GR Binding IC50.

What is called IC50 is the concentration that inhibits the measured activity by half. With `O=c1[nH]c(C2CC=C(c3cccnc3C(F)(F)F)CC2)c(Cc2ccccc2)c(=O)[nH]1` (stereo not shown) [Example 14], the IC50 turned out to be 459 nM.
